From patent US12398179 (SANFORD BURNHAM PREBYS MEDICAL DISCOVERY INSTITUTE, dated 2025)

Amino acid sequences for entries named in this document (tags omitted). Chains listed by the source or under a name are the forms on record and can include a tag or linker.
UniProt P29317, other isoform, or with tags, fused parts or gaps limits assumed, form in doubt: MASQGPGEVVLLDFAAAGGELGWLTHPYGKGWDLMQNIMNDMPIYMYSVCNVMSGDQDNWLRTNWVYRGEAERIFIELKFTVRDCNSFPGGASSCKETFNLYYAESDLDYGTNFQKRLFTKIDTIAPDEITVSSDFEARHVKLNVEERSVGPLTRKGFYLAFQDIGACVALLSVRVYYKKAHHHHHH
UniProt P29317, whole entry: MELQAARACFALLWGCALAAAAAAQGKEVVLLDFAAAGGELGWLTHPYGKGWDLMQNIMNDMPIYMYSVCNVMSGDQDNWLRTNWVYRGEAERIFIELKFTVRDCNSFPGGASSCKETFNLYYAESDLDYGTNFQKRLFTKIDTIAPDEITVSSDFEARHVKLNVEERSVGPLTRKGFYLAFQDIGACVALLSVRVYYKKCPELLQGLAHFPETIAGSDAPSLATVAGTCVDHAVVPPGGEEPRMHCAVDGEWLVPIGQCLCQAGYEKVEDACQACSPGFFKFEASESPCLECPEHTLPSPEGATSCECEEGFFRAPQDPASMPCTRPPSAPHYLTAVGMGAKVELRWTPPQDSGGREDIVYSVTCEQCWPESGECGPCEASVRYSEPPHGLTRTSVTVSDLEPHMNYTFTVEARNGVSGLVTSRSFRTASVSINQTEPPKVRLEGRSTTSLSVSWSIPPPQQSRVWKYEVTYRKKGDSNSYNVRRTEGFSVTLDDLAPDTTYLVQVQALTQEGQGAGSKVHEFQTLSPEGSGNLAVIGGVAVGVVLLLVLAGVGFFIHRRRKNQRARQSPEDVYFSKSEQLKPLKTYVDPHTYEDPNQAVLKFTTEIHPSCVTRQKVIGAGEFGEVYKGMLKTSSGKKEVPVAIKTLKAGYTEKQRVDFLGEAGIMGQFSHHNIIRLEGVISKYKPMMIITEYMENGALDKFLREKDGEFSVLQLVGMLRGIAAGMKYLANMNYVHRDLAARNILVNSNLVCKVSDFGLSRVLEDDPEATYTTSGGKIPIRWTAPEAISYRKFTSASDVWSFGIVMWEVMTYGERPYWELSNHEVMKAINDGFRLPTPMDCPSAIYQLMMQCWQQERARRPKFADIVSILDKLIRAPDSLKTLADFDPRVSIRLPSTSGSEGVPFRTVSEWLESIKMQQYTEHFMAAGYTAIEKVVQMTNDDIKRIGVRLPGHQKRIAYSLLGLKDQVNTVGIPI

Key:
[1] = target: T1, EphA2 ligand binding domain (EphA2 LBD, residues 28-200) with N-terminal MASQGPG and C-terminal Ala-6xHis tag (UniProt P29317 28-200); assay: ITC, peptide titrated into EphA2 LBD, 23 °C
T1 construct: range 28-200; Expressed in E. coli Origami 2 (DE3); used for ITC and crystallization

[2] = target: T1, EphA2 ligand binding domain (EphA2 LBD, …); assay: ITC, peptide titrated into EphA2 LBD, 23 °C; average ± SE (number of experiments)
[3] = target: T2, EphA2 extracellular domain fused to the Fc portion of an antibody (EphA2 Fc); assay: competition ELISA: inhibition of ephrin-A5 AP binding to immobilized EphA2 Fc; average ± SE (number of experiments)
T2 construct: extracellular domain; Immobilized in the ELISAs

| TΔS [1] [kcal/mol] | Kd [2] [nM] | N (binding stoichiometry) [1] | IC50 [3] [nM] | Binder |
| --- | --- | --- | --- | --- |
| 19.2 | – | – | – | YSAYPDSVPMMSGSGSK (biotin on the side chain of the C-terminal lysine (K-bio), YSA with C-terminal GSGSK linker and biotin on the lysine side chain; also called YSA-GSGSK-biotin; YSA-GSGSK-bio peptide) [YSA-GSGSK-bio] |
| 21.2 | – | – | – | AWLAYPDSVPYRPK (N-terminal beta-alanine (βA); C-terminal amide (am), also called BA-WLA-YRPKam) [βA-WLA-YRPKam] |
| 15.5 | – | – | – | YSAYPDSVPMMSGSGSK [YSA-GSGSK] |
| 14.3 | 27 | 1.06 | 13 | KAWLAYPDSVPYRPK (biotin on the N-terminal lysine (K-bio); C-terminal amide (am)) [K-bioA-WLA-YRPKam] |
